Experimental data from PubChem BioAssay AID485317 (Broad Institute, 2010).
The entries are a selection whose mix differs from that of the whole data set. Some of these compounds have results that are not shown, active ones among them. Activity calls are given as the source filed them.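 Rule for the calls: active = mean replicate inhibition above about 79%, with every replicate also reaching it (limit read from the data); inconclusive = only one of the two criteria met; inactive = mean below limit and not every replicate reaching it.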

The chains behind the UniProt entries cited, without tags or fusion partners.
UniProt P55789, whole entry: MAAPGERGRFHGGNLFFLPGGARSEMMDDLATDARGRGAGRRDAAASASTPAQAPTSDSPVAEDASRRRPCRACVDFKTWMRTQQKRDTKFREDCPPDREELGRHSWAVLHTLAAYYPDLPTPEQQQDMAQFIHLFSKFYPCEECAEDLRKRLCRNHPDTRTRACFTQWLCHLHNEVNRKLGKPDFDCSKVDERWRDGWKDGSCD

molecular target: FAD-linked sulfhydryl oxidase ALR (Homo sapiens) (UniProt P55789); assay: ALR-catalysed DTT oxidation blockers – biochemical, H2O2 detection, HRP-luminol luminescence, single point, primary screen (AID 485317); conditions: purified ALR, active compounds read high, concentration not given here

Row | Structure (SMILES) | inhibition
1 | COc1cccc(C(=O)NCC2(N3CCCCC3)CCCCC2)c1 | inactive: 2.92%
2 | COc1ccc(Cl)cc1C(=O)NCC1(N(C)C)CCCCC1 | inactive: -20.7%
3 | O=C(NCC1(N2CCCCC2)CCCCC1)c1cccc(Cl)c1 | inactive: 4.53%
4 | COc1cc(C(=O)NCC2(N(C)C)CCCCC2)c([N+](=O)[O-])cc1OC | inactive: -11.8%
5 | COc1ccc(Br)c(C(=O)NCC2(N3CCCCC3)CCCCC2)c1 | inactive: -5.51%
6 | CC(C)Oc1ccc(C(=O)NCC2(N(C)C)CCCCC2)cc1 | inactive: -3.31%
7 | CN(C)c1cccc(C(=O)NCC2(N(C)C)CCCCC2)c1 | inactive: -4.9%
8 | COc1cc(SC)ccc1C(=O)NCC1(N(C)C)CCCCC1 | inactive: -2.56%
9 | CC(C)N1C(=O)CC2(CCN(CCOC(=O)C(O)(c3ccccc3)c3ccccc3)CC2)C1=O | inactive: -5.59%
10 | Cc1ccc(C(=O)NCC2(N3CCCCC3)CCCCC2)cc1 | inactive: 0.012%
11 | O=C(NCC1(N2CCCCC2)CCCCC1)c1cc([N+](=O)[O-])ccc1Cl | inactive: -18.1%
12 | CN1[C@@H]2CC[C@H]1CC(OC(=O)C(O)(c1ccccc1)c1ccccc1)C2 (stereo not given in full) | inactive: -1.64%
13 | C=CCN1CCN(CCOC(=O)C(O)(c2ccccc2)c2ccccc2)CC1 | inactive: -30.3%
14 | COc1ccc(C(=O)NCC2(N(C)C)CCCCC2)cc1 | inactive: -1.67%
15 | Cc1cc(C(=O)NCC2(N3CCCCC3)CCCCC2)ccc1[N+](=O)[O-] | inactive: 4.16%
16 | CCN1CCCC(OC(=O)C2(O)c3ccccc3C=Cc3ccccc32)C1 (stereo not given) | inactive: -0.133%
17 | O=C(NCC1(N2CCCCC2)CCCCC1)c1cccc(Br)c1 | inactive: -2.52%
18 | Cc1ccccc1C(=O)NCC1(N2CCCCC2)CCCCC1 | inactive: -49.9%
19 | CN(C)C1CCCC1OC(=O)C(O)(c1ccccc1)c1ccccc1 (stereo not given) | inactive: -2.34%
20 | CN(C)c1ccc(C(=O)NCC2(N(C)C)CCCCC2)cc1 | inactive: 71.4%
